Data taken from US20060014193A1, “Nucleoside phosphoramidates and nucleoside phosphoramidases” (priority 2004, published 2006).

Sequences of proteins named here, by UniProt entry; tags and fusion partners are left off.
UniProt P49773, whole entry: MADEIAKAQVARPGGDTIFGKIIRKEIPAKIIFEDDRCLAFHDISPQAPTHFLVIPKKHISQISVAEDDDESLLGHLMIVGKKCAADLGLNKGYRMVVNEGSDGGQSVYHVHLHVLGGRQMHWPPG
UniProt P0ACE7, whole entry: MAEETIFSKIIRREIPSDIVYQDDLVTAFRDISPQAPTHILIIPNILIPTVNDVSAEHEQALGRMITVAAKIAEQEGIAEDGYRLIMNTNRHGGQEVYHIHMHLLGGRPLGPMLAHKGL

Assays:
hHINT1 = hHINT1 (Homo sapiens, UniProt P49773); test: Phosphoramidase fluorescence assay; format: biochemical
Method: The fluorescence of tryptophan (ex, 280 nm, em 360 nm) can be quenched when covalently attached to a nucleoside monophosphate, and nucleoside phosphoramidates of D- and L-tryptophan and tryptamine are excellent fluorescent substrates for hHINT1. Typically, after measurement of initial substrate fluorescence, hHINT1 was added to the reaction solution (HEPES buffer, pH 7.2, 25° C.) and the change in fluorescence over 2 min was determined by converting the slope into μM of substrate hydrolyzed per μg of enzyme per min with a standard curve. […] Based on the generation of chimeric polypeptides between the hHINTI and the hinT of E. coli, the preference for D enantiomers by the human HINT1 polypeptide is likely conferred by the C-terminus amino acids (e.g., the C-terminus 5, 6, 5 7, 8, 9, 10, or 11 amino acids) of the hHINT1 enzyme. The activity of hHINT1 with guanosine monophosphate (GMP) D-tryptophan phosphoramidate was approximately 7-fold greater than that for 7-benzyl guanosine monophosphate (7-Bn GMP), but nearly identical to that for GMP L-tryptophan. In addition, both D-tryptophan phosphoramidates of cytosine and uridine were substrates. Initial rates were determined 10 during the first 10-20% of the reaction for variable substrate concentrations. The Michaelis-Menten constants, kcat and Km, for selected nucleoside phosphosphoramidates have been determined. (Table 4). As observed in the initial screening assay, for phosphoramidates containing L-tryptophan, hHINT1 has a 7-fold greater preference for AMP phosphoramidates of L-tryptophan than GMP.

E. coli hinT = E. coli hinT (Escherichia coli, UniProt P0ACE7); test: Phosphoramidase fluorescence assay; settings: Table 5
[1] = Table 4, HEPES buffer, pH 7.2, 25° C.

Row | Preference of hHINT1 for AMP over GMP phosphoramidates of L-tryptophan (hHINT1) [fold] | Km (hHINT1; [1]) [µM] | k cat (hHINT1; [1]) [s⁻¹] | SMILES | Km (hHINT1; Table 5) [µM] | k cat (hHINT1; Table 5) [s⁻¹] | Km (E. coli hinT) [µM] | k cat (E. coli hinT) [s⁻¹]
1 | 7 | 31.1 | 3.02 | COC(=O)[C@H](Cc1c[nH]c2ccccc12)NP(=O)(O)OC[C@H]1O[C@@H](n2cnc3c(N)ncnc32)[C@H](O)[C@@H]1O | – | – | – | –
2 | – | 28.3 | 0.44 | NC(=O)[C@H](Cc1c[nH]c2ccccc12)NP(=O)(O)OC[C@H]1O[C@@H](n2cnc3c(=O)[nH]c(N)nc32)[C@H](O)[C@@H]1O | – | – | – | –

Row | SMILES | Preference of hHINT1 for AMP over GMP phosphoramidates of L-tryptophan (hHINT1) [fold] | Km (hHINT1; [1]) [µM] | k cat (hHINT1; [1]) [s⁻¹] | Km (hHINT1; Table 5) [µM] | k cat (hHINT1; Table 5) [s⁻¹] | Km (E. coli hinT) [µM] | k cat (E. coli hinT) [s⁻¹]
3 | COC(=O)[C@H](Cc1c[nH]c2ccccc12)NP(=O)(O)OC[C@H]1O[C@@H](n2cnc3c(=O)[nH]c(N)nc32)[C@H](O)[C@@H]1O | – | 101 | 1.42 | 28.6 | 0.057 ± 0.02 | 19.9 | 1.96 ± 0.12
